pIC50, pKi: −log10 of the molar value.
How the values were obtained:
[1] = target: 5-hydroxytryptamine receptor 4 (Cavia porcellus, UniProt O70528); assay: Competition Assay
Acetylcholinesterase = Acetylcholinesterase (Homo sapiens, UniProt P22303); assay: Inhibition Assay

The chains behind the UniProt entries cited, without tags or fusion partners. Where a name states a change or a piece, a line headed by the entry shows the natural chain unless it says otherwise. Residues count along the entry.
UniProt O70528: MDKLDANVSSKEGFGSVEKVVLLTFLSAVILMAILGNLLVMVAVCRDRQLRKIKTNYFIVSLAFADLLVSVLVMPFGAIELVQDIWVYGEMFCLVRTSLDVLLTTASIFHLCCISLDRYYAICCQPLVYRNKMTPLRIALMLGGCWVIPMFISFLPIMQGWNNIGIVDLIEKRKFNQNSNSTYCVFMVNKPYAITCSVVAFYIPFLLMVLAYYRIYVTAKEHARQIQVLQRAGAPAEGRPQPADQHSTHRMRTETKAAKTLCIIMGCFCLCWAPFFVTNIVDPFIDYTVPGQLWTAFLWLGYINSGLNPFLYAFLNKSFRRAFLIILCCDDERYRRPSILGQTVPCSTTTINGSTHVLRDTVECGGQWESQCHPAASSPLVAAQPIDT
UniProt P22303, 32-614 limits assumed: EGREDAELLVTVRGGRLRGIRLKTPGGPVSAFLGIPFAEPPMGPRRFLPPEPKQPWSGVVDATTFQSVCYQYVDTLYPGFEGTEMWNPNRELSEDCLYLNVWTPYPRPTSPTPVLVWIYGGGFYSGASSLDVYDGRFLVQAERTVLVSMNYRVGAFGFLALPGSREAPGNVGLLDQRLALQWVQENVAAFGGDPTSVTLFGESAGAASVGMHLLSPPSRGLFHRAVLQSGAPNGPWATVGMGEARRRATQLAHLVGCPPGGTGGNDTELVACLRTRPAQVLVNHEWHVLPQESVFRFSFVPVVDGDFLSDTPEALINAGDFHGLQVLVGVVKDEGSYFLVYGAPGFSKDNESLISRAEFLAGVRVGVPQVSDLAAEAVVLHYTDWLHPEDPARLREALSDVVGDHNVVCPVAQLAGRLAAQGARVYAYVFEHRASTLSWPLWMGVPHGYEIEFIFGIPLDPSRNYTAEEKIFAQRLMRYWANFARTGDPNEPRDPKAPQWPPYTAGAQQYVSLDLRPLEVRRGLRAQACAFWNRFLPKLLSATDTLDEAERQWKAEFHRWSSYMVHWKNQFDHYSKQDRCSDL

CCCCN1CCC(CCC(=O)c2cc(Br)ccc2OC)CC1
pKi [1]: 8.05
pIC50 (Acetylcholinesterase): 6.35

Reference: BindingDB's records for US9663465
